In PubChem BioAssay AID1274 (Emory University Molecular Libraries Screening Center, 2008):
The entries are a selection whose mix differs from that of the whole data set. Active and inactive are the calls of the source.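 The calls were made as follows: active = inhibition above about 30% (limit read from the data); inactive = the rest.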

The chains behind the UniProt entries cited, without tags or fusion partners.
UniProt P14598, whole entry: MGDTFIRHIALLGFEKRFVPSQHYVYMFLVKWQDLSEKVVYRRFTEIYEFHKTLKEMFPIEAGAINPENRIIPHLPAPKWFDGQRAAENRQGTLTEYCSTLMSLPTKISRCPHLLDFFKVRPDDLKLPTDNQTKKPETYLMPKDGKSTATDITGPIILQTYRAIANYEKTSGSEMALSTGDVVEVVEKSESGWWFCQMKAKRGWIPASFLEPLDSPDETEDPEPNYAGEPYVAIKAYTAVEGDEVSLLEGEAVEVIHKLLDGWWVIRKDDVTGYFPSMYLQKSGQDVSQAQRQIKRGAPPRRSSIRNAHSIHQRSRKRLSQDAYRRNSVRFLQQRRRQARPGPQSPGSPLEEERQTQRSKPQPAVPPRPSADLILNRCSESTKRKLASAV

molecular target: Neutrophil cytosol factor 1 (Homo sapiens) (UniProt P14598); test: p47phox/p22phox peptide binding inhibitors, primary screen, biochemical, uHTS, NADPH oxidase regulatory subunit (AID 1274); details: fluorescence polarization, 2 h, at 24.7 µM, hits give high values;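 also: 0% = p47phox with labelled peptide and 100% = labelled peptide alone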

SMILES	inhibition
N#Cc1ccc(C(=O)NCC2(N3CCCCC3)CCCCC2)cc1	inactive: -9.14%
c1ccc(CN2CCC(Nc3ccccc3)CC2)cc1	inactive: -8.67%
COc1ccc(C(=O)NCC2(N3CCOCC3)CCCCC2)cc1OC	inactive: -0.76%
N/C(=N\O)c1c(N)no[n+]1[O-]	inactive: -4.61%
O=C(OC1CN2CCC1CC2)C1c2ccccc2C=Cc2ccccc21 (centres undefined)	inactive: -1.47%
CCOc1ncccc1C(=O)NCC1(N2CCOCC2)CCCCC1	inactive: -4.84%
CC(C)(C)OC(=O)N1CCC(Nc2ccccc2)CC1	inactive: -14.9%
COc1cc(OC)cc(C(=O)NCC2(N3CCOCC3)CCCCC2)c1	inactive: 2.54%
CCC(CO)(C(=O)OC1CN2CCC1CC2)c1ccccc1 (centres undefined)	inactive: -10.4%
CCCOc1ccc(C)cc1CN(CCCl)CCCl	inactive: -9.68%
Fc1ccccc1NC1CCN(Cc2ccccc2)CC1	inactive: 4.4%
CCN1CCC(Nc2cccc(F)c2)CC1	inactive: -2.94%
CN(C)c1ccc(C(=O)NCC2(N3CCCCC3)CCCCC2)cc1	inactive: -18.6%
CCOc1ccc(C)cc1CN(CCCl)CCCl	inactive: -2.22%
COc1ccc(NC2CCN(CCc3ccccc3)CC2)c(OC)c1	inactive: -7.36%
Cc1ccc(OCC(C)C)c(CN(CCCl)CCCl)c1	inactive: -3.4%
COc1ccc(C(=O)NCC2(N3CCCCC3)CCCCC2)c(OC)c1OC	inactive: -3.91%
O=C(NCC1(N2CCOCC2)CCCCC1)c1cc2ccccc2o1	inactive: -5.54%
O=C(OC1CN2CCC1CC2)C1c2ccccc2Oc2ccccc21 (centres undefined)	inactive: -3.88%
N#CC1(Nc2ccccc2)CCN(Cc2ccccc2)CC1	inactive: 7.01%
CCOC(=O)N1CCC(Nc2ccc(OC)cc2)CC1	inactive: -8.35%
CC(C)c1ccc(NC2CCN(C(=O)OC(C)(C)C)CC2)cc1	inactive: 6.8%
CN(C)c1cccc(C(=O)NCC2(N3CCCCC3)CCCCC2)c1	inactive: 0.95%
COc1ccc(CN(CCCl)CCCl)cc1Cl	inactive: -0.96%
N#CC1(Nc2ccccc2)CCN(CCc2ccccc2)CC1	inactive: -11.4%
O=C(NCC1(N2CCCCC2)CCCCC1)c1cccc([N+](=O)[O-])c1	inactive: -10.3%
O=C(NCC1(N2CCOCC2)CCCCC1)c1cc(=O)[nH]c2ccccc12	inactive: 2.89%
CN1CCN(CCOC(=O)C(O)(c2ccccc2)c2ccccc2)CC1	inactive: 3.35%
COc1ccc(NC2CCN(C(=O)OC(C)(C)C)CC2)cc1	inactive: -6.35%
